## Measured affinities in a library of Ab-14 light chain variants

Reference: Li et al. 2023, doi:10.1038/s41467-023-39022-2. File: FLAb, binding data.

Binding partner: SARS-CoV-2 spike HR2 peptide, sequence PDVDLGDISGINAS.

Parent: Ab-14, a human scFv built as VH, the linker GGGGSGGGGSGGGGS, VL. Only the CDRs of the light chain vary.
VH: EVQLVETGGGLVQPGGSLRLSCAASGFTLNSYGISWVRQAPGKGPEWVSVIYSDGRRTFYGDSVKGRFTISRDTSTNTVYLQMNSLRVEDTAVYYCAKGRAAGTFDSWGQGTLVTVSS
VL: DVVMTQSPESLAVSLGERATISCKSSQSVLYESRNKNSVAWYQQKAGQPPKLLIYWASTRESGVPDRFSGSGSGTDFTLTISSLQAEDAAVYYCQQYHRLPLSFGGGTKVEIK

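Phage display of a naive human antibody library on the peptide gave the parent. Designed CDR sequences, proposed from the first random library and measured here. Several design methods are mixed in this list. Affinity was read by AlphaSeq, a pooled yeast mating assay with surface-displayed partners. The frequency of each diploid, read from paired DNA barcodes, reflects how well the two displayed proteins bind. The ratio of observed to expected reads was calibrated, replicate by replicate, on BCL2-family standards whose Kd was known from biolayer interferometry. Each pool was mated in six replicate cultures.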

Each variant is given by its three light chain CDRs, as the data file delimits them; those of the parent are KSSQSVLYESRNKNSVA, WASTRES, QQYHRLPLS.
Values are log10 of the apparent Kd in nM; lower means stronger binding.
A mean of the replicates is given; it leaves out those without a signal.
"no signal" means that the variant was in the library but no mating with the target was seen in any replicate; the authors take this as a sign of poor binding, and no number exists.
Order: sorted from the lowest average up, undetected variants last.
A sequence measured in both rounds can read differently, since the two assays cover different ranges.
Of ten entries with the parent sequence, four were seen in most replicates (averages 0.34 to 2.37), three in one and three in none, so single entries are noisy.
The authors averaged sequences with at least three values out of six and counted those with two or fewer as poor binders.
As a blank, each scFv also met three strains without target: over all light chain designs, 4% of these pairings were detected, typically at 2.64 and seldom below 1.59.

CDR-L1 | CDR-L2 | CDR-L3 | mean, log10 nM | seen in
KLSQSVLYESRAKNSVA | EASQRES | QQYHRLPLS | -0.36 | 6/6
KSSQLVLYESRNKNSVA | GASTRES | QQYHRLPLS | -0.34 | 6/6
KLSGSVLYESRNKNSVA | DASTRES | QQYHRLPLS | -0.31 | 6/6
KVEQSDLYESRNKNSVA | NASTRES | QQYHRLPLS | -0.30 | 6/6
KLSQSVLYESRNWNNVA | EASTRES | QQYHRLPLS | -0.28 | 6/6
KIDQSELEESRNKNSVA | SATVREY | QQYHRLPLS | -0.22 | 6/6
KFEQQDLYSSRNVNSVA | NASTRSQ | QQYHRLPLS | -0.22 | 6/6
KVDQLVDMESRNKNAVA | EASTRES | QQYHRLPLS | -0.15 | 6/6
KSSQSWGYESRNKNSVA | EASTRES | QQYHRLPLM | -0.10 | 6/6
KLSESVEYESRNKNSVA | DAQTRQS | QQYHRLPLS | -0.05 | 6/6
KVFPSGGMLSRNKNSVA | DASTRES | QQYHRLPLS | 0.00 | 6/6
KLSQSQLYESRNHKSVA | NASTRVS | QQYHRLPLS | 0.00 | 6/6
KVGQQFLQEQRNKNSVA | DASLRES | QQYHRLPLS | 0.05 | 6/6
MVNGITDHMSKQTNNVA | ETQTREE | QQYDRLPLS | 0.18 | 6/6
KVQQSELGLSRNKNSVA | EASKRES | QQYHRLPLS | 0.19 | 6/6
KIGGVTNGISRGKNSVA | EQSTRED | QQYNRLPLS | 0.29 | 6/6
KSEQSVPYESRNKNSVA | NASQRES | QQYHRLPLS | 0.30 | 6/6
SIYDATGMEARNKNPIA | DVSTRPS | QQYDRLPLS | 0.30 | 6/6
KLSMMADYEDRNKNSVA | SASTRES | QQYHRLPLS | 0.35 | 6/6
KSSQSWLYESRNKNSVA | EASAREV | QQYHRLPLS | 0.41 | 6/6
SMSNLQMVPSVWKNSIA | DSEHVEE | QQYSRLPLT | 0.44 | 6/6
IITQVDAYLSRNKNSIA | DQSTRGS | QQYDRLPLS | 0.44 | 6/6
KVWPSELGEERNKMSVA | QASTRES | QQYHRLPLS | 0.47 | 6/6
KLQGSDPYESRMKNSVA | QASVRES | QQYHRLPLS | 0.59 | 6/6
RVQINSGHSDMHWKSIA | SASIRAS | QQYERLPLE | 0.63 | 6/6
TIFQERSYEDGDERNIA | DARTRNI | QQYNRLPLV | 0.64 | 6/6
KSFQGVLYESRNKNSVA | GASTRES | QQYHRLPLI | 0.67 | 6/6
FLSQSWLYESRNKNSVA | NASQRES | QQYHRLPLS | 0.77 | 6/6
KVDQWEQYGSRNKNSVA | SASQRSS | QQYHRLPLS | 0.79 | 6/6
KSSQSVLYEFRNKNSVA | AASTRES | QQYHRLPLS | 0.81 | 6/6
KSSQSWLYESRNFWNVA | GASTRES | QQYHRLPLS | 0.81 | 6/6
TISQSMLYLSNLKNSIA | QAETRES | QQYHRLPIS | 0.83 | 6/6
KSSESVLYESRNKNSVA | WDSTRVS | QQYHRMPLS | 0.92 | 6/6
KLSQQDEYESRNKNSVA | HASCRWQ | QQYHRLPLS | 0.93 | 6/6
KLSMITGHMSMAKDNVA | EMVNREK | QQYNRLPLS | 0.94 | 6/6
RIFYREEEDLRHESSIA | NGSARVF | QQYYMLPLS | 0.99 | 6/6
HITYGMYVSGRHTSNIA | QAETRAK | QQYDRLPLI | 1.04 | 6/6
IIEQGQWEQEQNQNAMA | NGETRMR | QQYYKLPLV | 1.06 | 6/6
KLRQSEHIESFYKNNVA | EMTTRES | QSYDRLPLS | 1.18 | 5/6
MMTMGSLGGMRARNNVA | QEETREK | QQYHRLPLI | 1.26 | 6/6
IVTQLMLWGWHAKNSIA | EAQTRLN | QQYDRLPLF | 1.32 | 3/6
KSSQEVLYYSRNKNSVA | WASTRES | QQYHRLPLS | 1.39 | 1/6
KSSQLVLYESRNDNPVA | SASTRES | QQYHRIPLS | 1.49 | 6/6
KLWLAMDMFQGEANAVA | DQQLTRE | QQYARLPLS | 1.61 | 1/6
TISQVMNTLTRNTNNVA | DLTERED | QQYFRLPLS | 1.70 | 3/6
KLTQTMRFEQKKKNNIA | EVTTRTK | QQYYRLPLA | 1.74 | 6/6
MVQQLYNMGTFAINSVA | QASQRNA | QQYDRLPLM | 2.25 | 4/6
KLSMSYRYETEEKNSIA | ELVTRMS | QQYHRLPLS | 2.34 | 6/6
MVSQLMLWGLHAKNSIA | HAQMRLN | QQYDRLPLM | 2.43 | 1/6
TITMFMDNLTHNRNNVA | DTSTLGS | QSYDRLPLS | 2.88 | 6/6
FLTYAQDQTGLQYNAIA | QVNLKEN | QQYYRLPLA | no signal | 0/6
VLMGWGADSIQHANSVA | DRDLVDM | QQYAHLPLS | no signal | 0/6
QFARAMYHGLNDNQSIA | DAMTYIK | QQYSRLPLF | no signal | 0/6

A selection of 4 entries from above:

CDR-L1 | CDR-L2 | CDR-L3 | mean, log10 nM | seen in
KIGGVTNGISRGKNSVA | EQSTRED | QQYNRLPLS | 0.29 | 6/6
KSSQSWLYESRNFWNVA | GASTRES | QQYHRLPLS | 0.81 | 6/6
KLRQSEHIESFYKNNVA | EMTTRES | QSYDRLPLS | 1.18 | 5/6
TISQVMNTLTRNTNNVA | DLTERED | QQYFRLPLS | 1.70 | 3/6